# GIV Gai3 FP = inhibitors of GIV GBA-motif binding to rat Galpha-i3. 210,000 tested, 0.42% active. percent of control (FP), % (concentration not given with the values). AID 1224905. Galpha-i3/FITC-GIV peptide fluorescence polarization, 90 min; active compounds read low; scaled: aluminum fluoride 0%, vehicle 100%;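 active = replicate mean at 85% of control or lower, very high polarization wells dropped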;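 note: wells of about 15 µL received 100 nL stock; the first replicate is given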
# HCMV UL50-53 inh = inhibitors of HCMV UL50-UL53 interaction, biochemical, HTRF; 0.15% of 190,000 active; HCMV UL50-UL53 nuclear egress complex (human cytomegalovirus); inhibition, % (no concentration beside the values); normalized percent inhibition; AID 1918969, 2023; in the data active = inhibition above about 27%, passing the limit was not always enough
# * marks the source's active call; other numbers are inactive results; / = no result. Many of the other results were omitted from the sample, so hits are more common in it than they were.
# Results follow in this order: GIV Gai3 FP | HCMV UL50-53 inh
O=C1CC(c2ccsc2)c2c(-c3ccc(Cl)cc3)nn(-c3ccccc3)c2N1 (stereo not given)
 : 101 | -18
CCOC(=O)c1c(C)sc(-c2c(-c3cccc(Cl)c3)[nH]c3c2c(=O)n(C)c(=O)n3C)c1O
 : -63* | -25
CCOC(=O)c1c(C)sc(-c2c(-c3cc(C)ccc3C)[nH]c3c2c(=O)n(C)c(=O)n3C)c1O
 : 195 | 15
CCOc1cccc(CNC(=O)CCc2nnc3c4cc(-c5ccccc5)nn4ccn23)c1
 : 107 | -16
CC(C)(C)C1(C)OC(=O)C(=Cc2ccc(C(=O)O)cc2)C(=O)O1 (stereo not given)
 : 93 | -4
CN(C)c1ccc(/C=C2/C(=O)c3ccc(C(=O)O)cc3C2=O)cc1
 : -73* | -77
CCOc1cc(/C=C2/SC(=Nc3ccccc3)NC2=O)cc(Br)c1O
 : 276 | -53
CCOc1cc(/C=C2/SC(=S)N(C)C2=O)cc(Br)c1O
 : -47* | -1
O=C1c2ccccc2C(=O)c2c(NC3CCCCC3)ccc(Nc3ccc(Oc4ccccc4)cc3)c21
 : 104 | -6
O=C1C=C(C(F)(F)F)c2ccc(NC3CCCCC3)c3cccc1c23
 : -84* | /
O=C(Nc1nnc(-c2ccc(Cl)cc2)o1)c1ccco1
 : / | 0
Cc1ccc(Oc2ccc3c(c2)C(=O)N(c2cccc(O)c2)C3=O)cc1
 : 103 | -6
Oc1ccc(C=Nc2cccc(C(F)(F)F)c2)c(O)c1
 : 110 | 8
Oc1ccc(C=Nc2ccc(Nc3ccccc3)cc2)c(O)c1
 : 6.8* | 2
Cc1cc(C)c(S(=O)(=O)N2CCN(Cc3ccc4c(c3)OCO4)CC2)cc1C
 : 101 | -24
Cc1csc(-c2cc(S(=O)(=O)N3CCN(Cc4ccc5c(c4)OCO5)CC3)c(C)s2)n1
 : -0.1* | /
Cc1c(C)n(C)c2ccc(C(=O)NCCc3ccccc3)cc12
 : 106 | -12
CCc1cc2c(=O)n(Cc3ccccc3)c(SCc3c(C)noc3C)nc2s1
 : / | -26
Cc1noc(C)c1CSc1nc2c(sc3ncccc32)c(=O)n1CC(C)C
 : 97 | 38*
O=C(Nc1cc(-c2ccccc2)[nH]n1)C1COc2ccccc2O1 (stereo not given)
 : 100 | 7
CN(C)c1ccc(C2C=C(c3ccccc3)Nc3ncnn32)cc1 (stereo not given)
 : 134 | /
C1=C(c2ccccc2)Nc2ncnn2C1c1ccc2c(c1)OCO2 (stereo not given)
 : 103 | -30
C1=C(c2ccc3c(c2)OCO3)Nc2ncnn2C1c1cccs1 (stereo not given)
 : -22* | /
C1=C(c2ccccc2)Nc2ncnn2C1c1cccs1 (stereo not given)
 : -24* | /
Fc1ccccc1-c1ccc(CNCc2ccc3c(c2)OCO3)o1
 : 102 | -14
CCCn1c(/N=C/c2ccccc2Cl)nc2ccccc21
 : / | 13
CCn1c(/N=C/c2ccccc2Cl)nc2ccccc21
 : 104 | 72*
CCOc1ccc(C(=O)C(C)OC(=O)c2cccnc2N2CCCC2)cc1 (stereo not given)
 : / | 14
Cc1cccc(-n2c(Sc3nnnn3-c3ccccc3)nc3ccccc3c2=O)c1C
 : / | -16
Cc1ccccc1-n1nnnc1Sc1nnnn1-c1ccccc1
 : / | 40*
O=C(O)c1csc2c1CCCCC2
 : 98 | /
C=CCn1c(C)cc(C(=O)CSCc2nc3sc(C)c(C)c3c(=O)[nH]2)c1C
 : / | 26
CC(C)c1ccc(/C=c2/sc3n(c2=O)C(N)=C(C#N)C(c2ccc(C(C)C)cc2)C=3C#N)cc1 (stereo not given)
 : 107 | /
CC(=O)Oc1ccc2cc(-c3nc4c(s3)CCc3ccccc3-4)c(=O)oc2c1
 : -79* | /
CC(=O)Oc1ccc2cc(-c3nnc(-c4ccccc4)o3)c(=O)oc2c1
 : 173 | -32
COCc1cc(=O)n2[nH]c(Nc3cc(Cl)ccc3C)nc2n1
 : 101 | -33
CCOC(=O)C1=C(C)NC2=C(C(=O)CC(c3ccc(OC)c(OC)c3)C2)C1c1cc(OC)ccc1OC (stereo not given)
 : 100 | -34
CCOc1ccccc1NC(=O)c1cn(C2CCCCC2)c(=O)c2c1c1ccccc1n2C
 : 100 | 54*
COc1ccc(Cl)cc1NC(=O)c1cn(C2CCCCC2)c(=O)c2c1c1ccccc1n2C
 : 104 | 14
CCOC(=O)C1=C(C(=O)OCC)SC2(S1)C(C(=O)OCC)=C(C(=O)OCC)SC1=C2c2cc(C)ccc2N(C(=O)C(C)C)C1(C)C
 : 104 | /
C=CCn1c(=O)/c(=C2/Sc3ccccc3N2CC)s/c1=C1\SC(=S)N(C)C1=O
 : 331 | /
C=CCn1c(=O)/c(=C2/Sc3ccc(OC)cc3N2CC)s/c1=C1\SC(=S)N(CCCC)C1=O
 : 42* | /
CSC1=N/C(=C\c2ccccc2)C(=O)S1
 : 107 | -19
CCN(CC)c1ccc(/C=C2\N=C(SC)SC2=O)cc1
 : -78* | -30
CN(C)CCCNCc1cccn1C
 : 106 | 33*
CN(C)CCCNCc1ccco1
 : 99 | -9
CCOC(=O)c1c(NC(=O)Cn2cnc3sccc3c2=O)sc(C)c1CC
 : / | -5
CC(=O)Nc1sc2c(c1-c1nc3ccccc3s1)CCN(Cc1ccccc1)C2
 : -3.2* | /
CC(C)Oc1ccc(C(=O)Nc2sc3c(c2-c2nc4ccccc4s2)CCN(C)C3)cc1
 : -3.2* | /
CN1CCc2c(sc(NC(=O)CSc3ccccc3)c2-c2nc3ccccc3s2)C1
 : 188 | /
CC(=O)N1CCc2c(sc(NC(=O)c3ccc(Br)s3)c2-c2nc3ccccc3s2)C1
 : 108 | -22
CC(C)N1CCc2c(sc(NC(=O)c3ccc(F)cc3)c2-c2nc3ccccc3s2)C1
 : -3.2* | /
CCOc1ccc(C(=O)Nc2sc3c(c2-c2nc4ccccc4s2)CCN(CC)C3)cc1
 : -3.2* | /
CCN1CCc2c(sc(NC(=O)CCc3ccccc3)c2-c2nc3ccccc3s2)C1
 : 121 | /
CCC(=O)Nc1sc2c(c1-c1nc3ccccc3s1)CCN(C(C)=O)C2
 : 104 | -28
O=C(NCc1nnc2n1CCCC2)c1cccs1
 : 98 | /
CCc1cc(C2CCCN2C(=O)NC(C)CC)on1 (stereo not given)
 : 103 | /
N#CSCOC(=O)Oc1ccc2ccccc2c1
 : 100 | -23
C=CCSc1nc2c(c(=O)[nH]1)CCC2
 : 107 | 2
O=C(NCc1ccco1)NC(=O)c1ccc(-c2csnn2)cc1
 : 101 | /

# Following part.
# Results follow in this order: GIV Gai3 FP | HCMV UL50-53 inh
O=C(CCc1nc(CSc2nc3ccccc3s2)no1)Nc1c(F)cccc1F
 : 104 | /
COC(=O)c1c(NC(=O)c2ccc(Br)cc2)sc2c1CCN(C(C)C)C2
 : -26* | /
CCOC(=O)c1c(NC(=O)c2ccc(Cl)cc2)sc2c1CCN(C(C)C)C2
 : 186 | /
CCCS(=O)(=O)c1c(S(=O)(=O)CCC)c2c(C)cccn2c1C(=O)N/N=C/c1cccc(OC)c1
 : 108 | /
Cc1ccccc1CC(Cc1nc2ccccc2[nH]1)c1nc2ccccc2[nH]1 (stereo not given)
 : 109 | /
N#Cc1c(N)oc(-c2ccc3c(c2)OCO3)c1-c1ccc2c(c1)OCO2
 : -54* | -55
N#Cc1c(-c2ccc3c(c2)OCO3)cc(-c2ccc(F)cc2)nc1N
 : 111 | 2
CN(C)c1ccc(C(CNC(=O)CSc2nnc(-c3ccc(F)cc3)o2)c2c[nH]c3ccccc23)cc1 (stereo not given)
 : / | -7
CC(=O)N1N=C(c2ccccc2)CC1c1cc2cc3c(cc2nc1Cl)OCO3 (stereo not given)
 : 105 | -23

# Laid out differently: entries from further up
N#Cc1c(N)oc(-c2ccc3c(c2)OCO3)c1-c1ccc2c(c1)OCO2
  GIV Gai3 FP = -54* | HCMV UL50-53 inh = -55
N#Cc1c(-c2ccc3c(c2)OCO3)cc(-c2ccc(F)cc2)nc1N
  GIV Gai3 FP = 111 | HCMV UL50-53 inh = 2
CN(C)c1ccc(C(CNC(=O)CSc2nnc(-c3ccc(F)cc3)o2)c2c[nH]c3ccccc23)cc1 (stereo not given)
  GIV Gai3 FP = / | HCMV UL50-53 inh = -7
CC(=O)N1N=C(c2ccccc2)CC1c1cc2cc3c(cc2nc1Cl)OCO3 (stereo not given)
  GIV Gai3 FP = 105 | HCMV UL50-53 inh = -23

# Assay outcomes from PubChem.
